The entries are a selection whose mix differs from that of the whole data set. Calls of active or inactive are those of the source.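 Rule for the calls: active = inhibition of the luminescence signal of 40% or more relative to plate controls, in a single-dose primary screen at 18.75 µM; inactive = the rest.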
Assay: blockers of HIF-2a driven luciferase – luminescence, 786-0 RCC cells, primary screen (AID 624352)
Details: 786-0 RCC cells HIF-2a reporter, overnight, at 18.8 µM, stronger effect = higher value

Compound	inhibition
CSc1ccc(Nc2c([N+](=O)[O-])cc([N+](=O)[O-])cc2[N+](=O)[O-])cc1	inactive: 2.77%
O=C(OC1CN2CCC1CC2)c1cccc([N+](=O)[O-])c1 (stereo unspecified)	inactive: 9.48%
CCOC(=O)c1ccc(NC(=O)C(C)(CCl)SC)cc1 (stereo unspecified)	inactive: -88.9%
CCC(C)N(CC(C)C)C(=S)SC(NC(C)=O)C(Cl)(Cl)Cl (stereo unspecified)	inactive: 12.2%
COC(=O)C1(C)COP(=O)(N2CCCC2)OC1 (stereo unspecified)	inactive: 10.2%
COP1(=S)c2c(C)nn(CCC#N)c2N=C(c2ccc(F)cc2)N1C (stereo unspecified)	inactive: 7.28%
O=C(O)C(=O)c1ccc(N(CCCl)CCCl)cc1	inactive: -1.77%
O=C(Nc1ccncc1[N+](=O)[O-])c1ccc([N+](=O)[O-])cc1[N+](=O)[O-]	inactive: 6.62%
O=C(COc1ccccc1)OC1CN2CCC1CC2 (stereo unspecified)	inactive: 8.2%
CCOC(=O)Nc1cccc([As](=O)(O)O)c1	inactive: 15.1%
Cc1cc(SC(NC=O)C(Cl)(Cl)Cl)ncn1 (stereo unspecified)	inactive: 14.7%
O=P(Nc1ccccn1)(c1cccc2ccccc12)c1cccc2ccccc12	inactive: 18.4%
O=[N+]([O-])c1ccc(Nc2ccc(Oc3ccc([N+](=O)[O-])cc3[N+](=O)[O-])cc2)c([N+](=O)[O-])c1	inactive: -4.11%
O=C(O)C(O)c1ccc(N(CCCl)CCCl)cc1 (stereo unspecified)	inactive: 11.6%
CCOC(=O)Nc1ccc([As](=O)(O)O)c(O)c1	inactive: 12.8%
CC1CCNP(=O)(N(CCCl)CCCl)O1 (stereo unspecified)	inactive: 13.6%
COP(=O)(OC)N1CC1c1ccccc1 (stereo unspecified)	inactive: -5.98%
Cc1cc(SC(NC(=O)c2ccccc2)C(Cl)(Cl)Cl)nc(C(C)C)n1 (stereo unspecified)	inactive: 11.6%
CCCCOc1ccc(C(=O)NCC2(N3CCCCC3)CCCCC2)cc1OC	inactive: 14.2%
ClCCSc1nnc(-c2cccnc2)o1	inactive: -47.4%
CC(C)c1ccc(OP(=O)(Nc2ccccn2)Oc2ccccc2F)cc1 (stereo unspecified)	inactive: 19.2%
COC(=O)C1(C)COP(=O)(N2CCCCCC2)OC1 (stereo unspecified)	inactive: 11.8%
O=[N+]([O-])c1cc([N+](=O)[O-])c(-c2ccn[nH]2)s1	inactive: -0.168%
CCN(CC)C(=S)SC(NC=O)C(Cl)(Cl)Cl (stereo unspecified)	inactive: -0.204%
O=C(OC1CN2CCC1CC2)c1cccc2[nH]cnc12 (stereo unspecified)	inactive: 25.9%
CC(C)NC(=O)NP(=O)(Oc1ccccc1)Oc1ccccc1	inactive: 8.76%

Compound	inhibition
COc1cc(C(=O)NCC2(N3CCOCC3)CCCCC2)ccc1OCC(C)C	inactive: 9.64%
O=[N+]([O-])c1ccc(-c2cc([N+](=O)[O-])c(O)c([N+](=O)[O-])c2)cc1	inactive: -20.3%
O=[As](O)(c1ccc(O)cc1)c1ccccc1O	inactive: 26.1%
C[As](=O)(O)c1cccc(C(=O)O)c1	inactive: 15.9%
Cc1ccc(OP(=O)(Nc2ccc([N+](=O)[O-])cn2)Oc2ccc(C)cc2)cc1	inactive: 11.7%
[N-]=[N+]=NC1CCCCC1NC(=O)c1cc([N+](=O)[O-])cc([N+](=O)[O-])c1 (stereo unspecified)	inactive: 1.16%
Cc1ccc2nc3c(c(C)c2c1)CC(C(Cl)Cl)S3 (stereo unspecified)	inactive: -234%
O=[N+]([O-])c1cc(Oc2ccc([N+](=O)[O-])cc2C(F)(F)F)cc([N+](=O)[O-])c1	inactive: 9.11%
COc1ccc(N/C(=N/P(=O)(N2CCOCC2)N2CCOCC2)N2CCOCC2)cc1	inactive: 26.1%
Cc1c2c(nc3ccccc13)SC(C(Cl)Cl)C2 (stereo unspecified)	inactive: -75.7%
Cc1cc(=O)[nH]c(N[N+](=O)[O-])n1	inactive: 8.97%
O=C(OC1CN2CCC1CC2)C12CC3CC(CC(C3)C1)C2 (stereo unspecified)	inactive: 14.5%
O=P1(N(CCCl)CCCl)Nc2ccccc2N1	inactive: -31.6%
O=P1(N(CCCl)CCCl)OCCCN1CCCl (stereo unspecified)	inactive: -6.55%
COc1cc(I)ccc1[As](=O)(O)O	inactive: 15.8%
COc1ccc2nc(NP(=O)(c3ccccc3)c3ccccc3)sc2c1	inactive: 22.1%
Cc1ccc(NCCc2c([N+](=O)[O-])cc([N+](=O)[O-])cc2[N+](=O)[O-])cc1	inactive: -138%
Nc1cccc2c([As](=O)(O)O)cccc12	inactive: 15.2%
CCCOP(=S)(Nc1nc(N)cc(=O)[nH]1)OCCC	inactive: 3.31%
CCOP(=O)(Nc1cccc2ccccc12)OCC	inactive: 15.2%
COc1cc(C2NCCC3(OCCO3)C2(C)C)cc(OC)c1OC (stereo unspecified)	inactive: -4.85%
O=C(OC1CN2CCC1CC2)c1ccc(Cl)cc1 (stereo unspecified)	inactive: 12.8%
CS(=O)(=O)c1ccc(Cl)c(NC(=O)COC(=O)C(O)(c2ccccc2)c2ccccc2)c1	inactive: 10.4%
COc1cc(C(=O)NCC2(N3CCOCC3)CCCCC2)cc(Cl)c1OC(C)C	inactive: 7.62%
O=[As](O)(O)c1cccnc1	inactive: 6.14%
O=[As](O)(c1cccc(O)c1)c1cccc(O)c1	inactive: 9.86%

Compound	inhibition
Cc1cccc(OCC(=O)OC2CN3CCC2CC3)c1 (stereo unspecified)	inactive: 5.49%
NC(=O)Nc1ccc([As](=O)(O)O)cc1	inactive: -3.47%
CCOP1(=S)c2c(C)nn(CCC#N)c2N=C(c2ccc(F)cc2)N1C (stereo unspecified)	inactive: 17.7%
CN(C(=O)Cc1ccccc1)[C@@H]1CC[C@]2(CCCO2)C[C@H]1N1CCCC1	inactive: 8.25%
N#CCCN(C(=O)COC(=O)C(O)(c1ccccc1)c1ccccc1)c1ccc(F)cc1	inactive: 5.66%
CN(C(=O)Cc1ccc(Cl)c(Cl)c1)[C@H]1CC[C@@]2(CCCO2)C[C@@H]1N1CCCC1	inactive: -4.7%
CN(C)C(=O)c1cc([N+](=O)[O-])cc2c1-c1c(cc([N+](=O)[O-])cc1[N+](=O)[O-])C2=O	active: 74.2%
O=[N+]([O-])c1ccc2c(c1)nnn2O	inactive: 7.83%
O=P(Nc1nccs1)(c1ccccc1)c1nc2ccccc2s1 (stereo unspecified)	inactive: -39.5%
O=P(Nc1nccs1)(Oc1ccccc1)Oc1ccccc1	inactive: 15.7%
CCOP1(=S)c2c(C)nn(CCC#N)c2N=C(c2ccccc2F)N1C (stereo unspecified)	inactive: 2.38%
CS(=O)(=O)c1cc([N+](=O)[O-])c2no[n+]([O-])c2c1	inactive: 11.4%
O=C(O)COc1ccc([As](=O)(O)O)cc1[N+](=O)[O-]	inactive: 24.9%
Nc1ccccc1[As](=O)(O)c1ccccc1	inactive: 13.3%
Cc1ccc(S(=O)(=O)N(CCCN)CCCc2c(C)nc(N)[nH]c2=O)cc1	inactive: 6.09%
O=P1(Nc2ncccn2)COc2ccccc2OC1	inactive: 16.2%
Nc1cccc([As](=O)(O)c2ccccc2)c1	inactive: 15.5%
NS(=O)(=O)c1cccc(NC(=O)COC(=O)C(O)(c2ccccc2)c2ccccc2)c1	inactive: 11.3%
O=P1(Nc2ccc(Br)cn2)COc2ccccc2OC1	inactive: 9.9%
Cc1ccc(OCC(=O)OC2CN3CCC2CC3)cc1 (stereo unspecified)	inactive: 17.2%
O=[As](O)(c1cccs1)c1cccs1	inactive: -0.747%
Cc1ccc(C(=O)OC2CN3CCC2CC3)cc1 (stereo unspecified)	inactive: 15.8%
CC1CCC(C(C)C)C(OP(=O)(Nc2ccccn2)c2ccccc2)C1 (stereo unspecified)	inactive: 18.4%
Cc1nn(-c2ccccc2)c2c1P(=O)(N1CCOCC1)N(C)C(c1ccccc1)=N2 (stereo unspecified)	inactive: -4.45%
CN(C)C1(CNC(=O)c2ccc(S(C)(=O)=O)cc2)CCCCC1	inactive: 14%
CCCC1OP(=O)(Nc2ccccc2)OCC1CC (stereo unspecified)	inactive: 12.9%

Compound	inhibition
O=C(/C=C/c1ccccc1)OC1CN2CCC1CC2 (stereo unspecified)	inactive: -1.98%
COc1ccccc1CNC(=O)COC(=O)C(O)(c1ccccc1)c1ccccc1	inactive: 13.9%
CN(C(=O)Cc1ccc(Cl)c(Cl)c1)[C@@H]1CCCC[C@H]1N1CCCC1	inactive: 0.74%
CC(C)/C=N\N=C(\N)N[N+](=O)[O-]	inactive: 6.22%
CC1(CBr)Cn2c(nc3ccccc3c2=O)S1 (stereo unspecified)	inactive: 23.8%
CCOP(=O)(NC(=NC(C)c1ccccc1)NC(C)c1ccccc1)OCC (stereo unspecified)	inactive: 7.89%
CCC1=CC2Cc3nc4ccc(Cl)cc4c(N)c3C(C1)C2 (stereo unspecified)	inactive: -3.21%
O=P1(Nc2ccccn2)COc2ccccc2OC1	inactive: 14.8%
CN(CCCl)Cc1cc(Cl)c(NC2=NCCN2)c(Cl)c1	inactive: -4.98%
CCOP(=O)(Nc1ccc(C)cn1)OCC	inactive: 9.87%
CC(C)(C)C(=O)NC(Sc1ncccn1)C(Cl)(Cl)Cl (stereo unspecified)	inactive: 12.3%
Clc1n[nH]nc1-c1nn[nH][15n]1	inactive: 2%
O=P1(N(CCCl)CCCl)NCCC(C(F)(F)F)O1 (stereo unspecified)	inactive: 5.57%
O=P(Nc1nccs1)(c1ccccc1)c1ccccc1	inactive: 12.1%
CC(C)C(=O)NC(Sc1ccccc1)C(Cl)(Cl)Cl (stereo unspecified)	inactive: 6.37%
c1nnnn1CCn1cnnn1	inactive: 16.2%
O=[As](O)(c1ccccc1)c1ccc(O)cc1	inactive: 10.5%
CC(=O)NC(SC(=S)N(C)C)C(Cl)(Cl)Cl (stereo unspecified)	inactive: 13.7%
O=[N+]([O-])c1ncn(CCn2cnc([N+](=O)[O-])n2)n1	inactive: 5.17%
O=[N+]([O-])c1ccc(O)c(/C=N/Nc2ccc([N+](=O)[O-])cc2[N+](=O)[O-])c1	inactive: -25.3%
O=C(OC1CN2CCC1CC2)c1cccc(Cl)c1 (stereo unspecified)	inactive: 6.58%
Nc1ccc([As](=O)(O)c2ccc([N+](=O)[O-])cc2)cc1	inactive: 16.1%
C(Cc1nn[nH]n1)Cc1nn[nH]n1	inactive: 0.184%
